Results on one compound are retold here after article PMC7176092, “Development of the first in vivo GPR17 ligand through an iterative drug discovery pipeline: A novel disease-modifying strategy for multiple sclerosis” (PLoS ONE, 2020).

Protein sequences, listed by entry. Tags and fused reporters are not part of them. Residues count along the entry.
UniProt Q13255, 19-1194: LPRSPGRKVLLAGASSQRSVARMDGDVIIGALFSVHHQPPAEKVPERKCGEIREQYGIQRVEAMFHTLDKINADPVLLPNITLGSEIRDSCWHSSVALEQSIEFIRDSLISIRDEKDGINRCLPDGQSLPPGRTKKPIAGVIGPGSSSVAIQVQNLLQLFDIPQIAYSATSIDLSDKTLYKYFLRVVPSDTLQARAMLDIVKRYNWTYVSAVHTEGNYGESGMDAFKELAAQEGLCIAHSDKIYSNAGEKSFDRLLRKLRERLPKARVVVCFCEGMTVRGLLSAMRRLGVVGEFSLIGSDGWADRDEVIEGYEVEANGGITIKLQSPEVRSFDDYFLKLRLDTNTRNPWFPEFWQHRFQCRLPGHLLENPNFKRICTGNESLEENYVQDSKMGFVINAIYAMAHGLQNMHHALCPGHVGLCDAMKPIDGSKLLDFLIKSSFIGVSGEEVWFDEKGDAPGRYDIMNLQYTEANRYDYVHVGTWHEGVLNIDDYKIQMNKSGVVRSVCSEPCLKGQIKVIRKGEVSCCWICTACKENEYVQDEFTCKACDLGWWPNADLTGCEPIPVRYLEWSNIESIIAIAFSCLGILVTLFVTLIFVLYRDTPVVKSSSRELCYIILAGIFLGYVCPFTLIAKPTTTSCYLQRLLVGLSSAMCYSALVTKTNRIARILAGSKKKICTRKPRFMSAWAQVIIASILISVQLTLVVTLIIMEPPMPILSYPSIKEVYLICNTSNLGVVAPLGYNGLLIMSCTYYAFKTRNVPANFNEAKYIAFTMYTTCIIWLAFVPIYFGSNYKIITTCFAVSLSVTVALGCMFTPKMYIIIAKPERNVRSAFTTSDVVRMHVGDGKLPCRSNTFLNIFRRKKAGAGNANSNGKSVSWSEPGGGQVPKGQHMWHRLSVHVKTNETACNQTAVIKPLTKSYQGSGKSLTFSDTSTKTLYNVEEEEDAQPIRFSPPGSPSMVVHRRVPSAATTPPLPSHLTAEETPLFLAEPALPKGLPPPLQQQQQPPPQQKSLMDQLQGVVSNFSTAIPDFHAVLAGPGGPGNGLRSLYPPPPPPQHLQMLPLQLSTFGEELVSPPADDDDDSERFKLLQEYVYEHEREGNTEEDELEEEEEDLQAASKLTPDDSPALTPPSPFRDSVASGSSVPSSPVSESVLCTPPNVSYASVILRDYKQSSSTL

The assay deals with mGluR1 (Homo sapiens, UniProt Q13255). In words: Binding assay mGluR1. The conditions noted are these: reference compound.

Structures are written as SMILES.

In general, IC50 refers to the concentration that inhibits the measured activity by half. The low end stands for higher potency, the high end for lower potency. The Ki is the equilibrium dissociation constant of an inhibitor or competing ligand from its target. The low end stands for tighter binding, the high end for weaker binding. The compound `N[C@@H](Cn1oc(=O)[nH]c1=O)C(=O)O` [L-Quisqualate, reference compound] displayed an IC50 of 160 nM and a Ki of 140 nM.
